# Results from patent US11980209B2, “Consumables” (GIVAUDAN SA, priority 2007, dated 2024).
# Test system: perceived sweet taste (sweet sensitive panelists)
# Assay: Ranking test of 2 ppm NHDC in water (Example 7)
# Format: in vivo, human
# Conditions: 2 ppm NHDC in water vs 0.5% sucrose; critical values 35.39-64.61%
# Procedure: A 2 ppm NHDC in water sample was evaluated for its isointensity to 0.5 and 1% sucrose solutions using the ranking method described in example 3b.
smiles,measurement,value
"COc1ccc(CCC(=O)c2c(O)cc(O[C@@H]3O[C@H](CO)[C@@H](O)[C@H](O)[C@H]3O[C@@H]3O[C@@H](C)[C@H](O)[C@@H](O)[C@H]3O)cc2O)cc1O [NHDC, Neohesperidin dihydrochalcone]",R-index,41%
